Apparent affinities of Ab-91 variants for a coronavirus HR2 peptide

Reference: Engelhart et al. 2022, doi:10.1038/s41597-022-01779-4. File: FLAb, binding data.

Target: peptide PDVDLGDISGINAS, taken from heptad repeat 2 (HR2) of SARS-CoV-2 spike.

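Phage display of a naive human antibody library on the peptide gave the parent. AAYL51 was designed without a model: most single CDR substitutions and a random sample of double and triple ones. The assay is AlphaSeq: two haploid yeast populations carry antibody and antigen on their surface. After mating in shaken culture at 30 °C for 16 h, diploids were selected and their barcode pairs sequenced. Each replicate has its own calibration line, from reference interactions of the BCL2 family. There are three technical replicates.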

Ab-91 is the parent antibody, in scFv form: VL, then a (GGGGS)3 linker, then VH. The light chain is unchanged in all variants.
VL: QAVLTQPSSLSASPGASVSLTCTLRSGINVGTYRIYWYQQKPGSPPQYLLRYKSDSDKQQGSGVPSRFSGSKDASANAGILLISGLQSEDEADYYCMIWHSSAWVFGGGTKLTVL
VH: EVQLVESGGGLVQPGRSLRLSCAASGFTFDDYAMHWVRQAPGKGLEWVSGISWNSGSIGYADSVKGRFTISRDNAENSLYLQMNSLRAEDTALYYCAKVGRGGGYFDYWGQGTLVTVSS

Variants are written as CDR1, CDR2 and CDR3 of the heavy chain (limits as in the source). Parent: GFTFDDYAMH, GISWNSGSIGYADSVK, VGRGGGYFDY. Each Kd is an estimate from the mating assay, the geometric mean of the replicates in which the pair was seen; lower is stronger. An entry "nd" has no value in the source: the pair was not observed among the diploids in any replicate. This suggests poor binding but is not conclusive.

| # | Kd | detected | CDR-H1 | CDR-H2 | CDR-H3 |
|---|---|---|---|---|---|
| 1 | nd | 0 of 3 | GFTFDDYAMH | GWSWASGSIGYADSVH | VGRGGGYFDY |
| 2 | 2.1 µM | 2 of 3 | GLTFDDYAMH | GIEANSGSIGYADSVK | VGRGGGYFDY |
| 3 | 640 nM | 1 of 3 | GFTFDDYAMH | GIRWNSGSIIYADSVK | VGRGMGYFDY |
| 4 | 5.5 µM | 1 of 3 | GFTFDDYAMH | GASWTSGSIGYAMSVK | VGRGGGYFDY |
| 5 | 5.1 µM | 1 of 3 | MQTFDDYAMH | GISWNSMSIGYADSVK | VGRGGGYFDY |
| 6 | nd | 0 of 3 | CFTFDDYAMH | GISWNSGSIGYAWSVK | VGRGGDYFDY |
| 7 | 24 µM | 2 of 3 | GFTFDTYAMH | GQSWNSGSIGYADSVK | RGRGGGYFDY |
| 8 | 7.5 nM | 3 of 3 | GFTFDRYAMH | GMSWNSGSIGYADSVK | VGRGGGYFDI |
| 9 | nd | 0 of 3 | GFTFDDYAMH | GISWNGGSIGIADSVK | VGRGGGYFPY |
| 10 | 480 µM | 1 of 3 | KFTFDDYAMH | GISWNSGSIGMADSVK | VGRRGGYFDY |
| 11 | nd | 0 of 3 | GFTFDDYTMH | GISWNSGSIGYADYVK | VGDGGGYFDY |
| 12 | 29 µM | 1 of 3 | GFAFDDYAMH | GISWNSGSIGYALSVK | VGRGHGYFDY |
| 13 | nd | 0 of 3 | PFTFDDYAMH | GISWNSGSIGYADSVK | VGDGGGYFDN |
| 14 | nd | 0 of 3 | GFTFDDYAMH | GISWNSGSHGYADSVK | VGRGGGYFIY |
| 15 | nd | 0 of 3 | GFTLTDYAMH | GISWNSGSIGYADSMK | VGRGGGYFDY |
| 16 | nd | 0 of 3 | GETFDDYAMH | GISWNSGSIGYADSVK | EGRGGSYFDY |
| 17 | 1.5 µM | 3 of 3 | GFTFDDYSIH | GISWNSGSIGYADSVK | VGRGGGPFDY |
| 18 | 750 nM | 3 of 3 | GFTFNDYAMH | GISWNSGSIGYALSVK | VGRGSGYFDY |
| 19 | 15 µM | 1 of 3 | GFTFDDYAMH | GISWNSGSIGYADSVK | VGRGGGYADE |
| 20 | nd | 0 of 3 | GFTFDDYAMH | GIDWHSGSIGYADSVK | VGRGGGYFVY |
| 21 | 72 µM | 3 of 3 | GFTFDDYAMH | GISWNSGSINYDDSVY | VGRGGGYFDY |
| 22 | nd | 0 of 3 | GFTFDDYARH | GTSWNSDSIGYADSVK | VGRGGGYFDY |
| 23 | nd | 0 of 3 | GFTFDDYAMH | GISWNPGSIGYADSVD | VGRGGWYFDY |
| 24 | 8.4 µM | 2 of 3 | GFTFDGYAMH | WISWNSGSIGYADSVK | VGYGGGYFDY |
| 25 | 24 µM | 1 of 3 | GFTFDAYAMH | GISWNSGSKGYADSVK | VGRGGIYFDY |
| 26 | nd | 0 of 3 | GFTFDDYYMH | EISWNSGSIGYADSVK | VGRGGGKFDY |
| 27 | nd | 0 of 3 | GQTFVDYAMH | GISWNSGSIGYADSVK | VGRGGSYFDY |
| 28 | 20 µM | 2 of 3 | GFTFDDYAMH | GISWCSGSIGYADSVK | VGRGGMYYDY |
| 29 | nd | 0 of 3 | GFTFDDYAMH | GISWNPGSIGYADSVI | VSRGGGYFDY |
| 30 | 31 µM | 1 of 3 | GFTFDDYAMH | GISWNSGSFSYADSVK | VGRGGGYFDY |
| 31 | nd | 0 of 3 | RHTFDFYAMH | GISWNSGSIGYADSVK | VGRGGGYFDY |
| 32 | 280 µM | 1 of 3 | GFTFDDYAMH | GMSWESGSIGYADSVK | VGRFGGYFDY |
| 33 | 36 µM | 1 of 3 | AFTFDDYAMH | GISWNSGSINYADSVK | RGRGGGYFDY |
| 34 | 28 µM | 2 of 3 | GFTFDDYAMH | LISWNSGSIGYADSVK | VGRGGQYEDY |
| 35 | nd | 0 of 3 | GFTFDPYAMH | GISWNSGCIGYADSVK | VGRGGGYFDK |
| 36 | 3.7 nM | 3 of 3 | GFTFDDYAMH | GISWNSGSQGYADSVK | VVRGGGRFDY |
| 37 | 2.3 µM | 1 of 3 | WFTFDDYAMV | GISWNSGSIGYADSPK | VGRGGGYFDY |
| 38 | nd | 0 of 3 | GFTFDDYAMH | GISWNSGFIGYACSVK | HGRGGGYFDY |
| 39 | 9.5 µM | 2 of 3 | GFTFDDYAMH | GISWNSGSIGYAGHVK | VGRGGGYLDY |
| 40 | nd | 0 of 3 | GFTFDDYAMH | GISWNWGSIGYAKSVK | VGRGGGYFDY |
| 41 | nd | 0 of 3 | GFGFDDYRMH | GISWNSGSIGYADSVK | VGRIGGYFDY |
| 42 | nd | 0 of 3 | GFTFDDYALH | GISWNSGSIGYADSVK | QGRGLGYFDY |
| 43 | 590 nM | 2 of 3 | GFRFDDYAMH | GISWNSGSIGYADSVN | VGQGGGYFDY |
| 44 | 300 µM | 1 of 3 | WFTFDDYAMH | GISWNSGSITYADSVK | VGRGGGYFDY |
| 45 | 370 nM | 3 of 3 | GFTFGDYAMH | GESFNSGSIGYADSVK | VGRGGGYFDY |
| 46 | 130 µM | 2 of 3 | GFTFDDYAMH | TISWNSGSIAYNDSVK | VGRGGGYFDY |
| 47 | 4.5 µM | 1 of 3 | GFTFDDYAMH | GISWNSGSPGYADSVW | VGRCGGYFDY |
| 48 | 390 µM | 3 of 3 | GFTFDDYAMH | GISWESGSIGYADSVK | NGRGGGYFVY |
| 49 | 49 µM | 3 of 3 | GFMFDDYAMH | GISWMSGSIGYADSVK | VGRGGGYFWY |
| 50 | nd | 0 of 3 | GFTFDDYAMH | EICWNSGSIGYADSVK | VGRGGGYFDD |
| 51 | 9.9 nM | 3 of 3 | GFTFDDYAMH | GISWNSGSKGYASSVK | VGRGGGYFDA |
| 52 | nd | 0 of 3 | GFTFDDYAMH | GISWNSGSITWADSVK | VGRGGMYFDY |
| 53 | 220 nM | 3 of 3 | GYTFDDYAMH | GISWNSGSLGYADSVK | VGRGGGSFDY |
| 54 | 30 µM | 1 of 3 | GFTFDVYAMH | GISWNSGSIGYADSVK | VLRGGGYFDP |
| 55 | nd | 0 of 3 | GFTFDDSAMH | QISWNSGSIRYADSVK | VGRGGGYFDY |
| 56 | nd | 0 of 3 | GFTFDGYAMH | GISWNSGSIGYADSVK | VGRGGGRSDY |
| 57 | 46 µM | 2 of 3 | GFTFDDYAMH | GIRWNSGPIGYADSVK | VGRGGGYFDY |
| 58 | nd | 0 of 3 | GITFDDYAMH | GISWISGSIGYADSVK | VGRGGGYFDG |

The closing 10 entries, repeated:

| CDR-H1 | CDR-H2 | CDR-H3 | Kd | detected |
|---|---|---|---|---|
| GFMFDDYAMH | GISWMSGSIGYADSVK | VGRGGGYFWY | 49 µM | 3 of 3 |
| GFTFDDYAMH | EICWNSGSIGYADSVK | VGRGGGYFDD | nd | 0 of 3 |
| GFTFDDYAMH | GISWNSGSKGYASSVK | VGRGGGYFDA | 9.9 nM | 3 of 3 |
| GFTFDDYAMH | GISWNSGSITWADSVK | VGRGGMYFDY | nd | 0 of 3 |
| GYTFDDYAMH | GISWNSGSLGYADSVK | VGRGGGSFDY | 220 nM | 3 of 3 |
| GFTFDVYAMH | GISWNSGSIGYADSVK | VLRGGGYFDP | 30 µM | 1 of 3 |
| GFTFDDSAMH | QISWNSGSIRYADSVK | VGRGGGYFDY | nd | 0 of 3 |
| GFTFDGYAMH | GISWNSGSIGYADSVK | VGRGGGRSDY | nd | 0 of 3 |
| GFTFDDYAMH | GIRWNSGPIGYADSVK | VGRGGGYFDY | 46 µM | 2 of 3 |
| GITFDDYAMH | GISWISGSIGYADSVK | VGRGGGYFDG | nd | 0 of 3 |

As a blank, each scFv also met three strains without target: over library AAYL51, 21% of these pairings were detected, typically at 34 µM and seldom below 1.8 µM.